Data on one substance can be found in patent US20230059009A1, “INHIBITORS OF LIN28 AND METHODS OF USE THEREOF” (The Regents of the University of California, priority 2019, published 2023).

A word on the IC50: it is the concentration that gives 50% inhibition.

This assay concerns SW480. The assay can be described thus: Cell viability, CTG, SW480. The class given is cell-based. The following applies: SW480 (Colon), Cetuximab. How it is done:
To measure cell viability, cell titer glow (CTG, Promega CellTiter-Glo 2.0 Assay) and MTT assays (SigmaAldrich, Cell Proliferation Kit I) were performed. Briefly, cells were serum starved overnight prior to seeding in 96-well plates. Following 24 h incubation, cells were treated with increasing concentrations of JGJ compounds for 96 hr. At assay read-out, CellTiter-Glo reagent was added and luminescence was measured after 10-minutes incubation at room temperature. For the MTT assay, MTT labeling reagent was added and incubated for 4 h. Subsequently, medium was removed and 50 μL DMSO was added to solubilize the crystals, and absorbance was measured at 570 nm. Cell viability was calculated as (Sample-Background)/(Control-Background). Current standard of care drugs, Enzalutamide, Palbociclib and Cetuximab were used as comparative controls.

In turn, Cetuximab displayed an IC50 of 40 µg/mL.
